This note sets out measurements from PubChem BioAssay AID651702 (NMMLSC, 2012).

The list shows a part of the results, in another mix than the full data. Some results for these compounds are left out of this collection, so the calls shown say nothing about other tests. Activity calls are given as the source filed them.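 Rule for the calls: active = inhibition above about 55% (limit read from the data); inconclusive = no clear call, values can overlap the other calls; inactive = the rest.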

The experiment in a line: LAMP-1 surface exposure blockers, TALL-104 cells – cell-based, flow cytometry, MLPCN library, primary screen (AID 651702). Particulars: TALL-104 LAMP-1 surface exposure, at 10 µM, active compounds read high, cells stimulated with thapsigargin and PMA.
Consider `O=C(NCC1(N2CCCCC2)CCCCC1)c1cccc(Cl)c1`, for which the inhibition – broadly, the relative decrease from the control value, in per cent – is inactive: -2.9%.

As to `COc1ccc(Cl)cc1C(=O)NCC1(N(C)C)CCCCC1`, the inhibition is inactive: -1.4%.

On to `COc1cccc(C(=O)NCC2(N3CCCCC3)CCCCC2)c1`, for which the inhibition is inactive: -0.4%.

With `COc1cc(C(=O)NCC2(N(C)C)CCCCC2)c([N+](=O)[O-])cc1OC`, the inhibition is inactive: -7.8%.

In the case of `CN(C)C1(CNC(=O)c2ccc(Br)cc2)CCCCC1`, the inhibition is inactive: -0.1%.

On to `CN(C)c1cccc(C(=O)NCC2(N(C)C)CCCCC2)c1`, for which the inhibition is inactive: -2.3%.

As for `O=C(OCCN1CCCC1)C(O)(c1ccccc1)c1ccccc1`, the inhibition is inactive: 6.5%.

On to `CC(C)Oc1ccc(C(=O)NCC2(N(C)C)CCCCC2)cc1`, for which the inhibition was inactive: 7.2%.

Consider `COc1ccc(Br)c(C(=O)NCC2(N3CCCCC3)CCCCC2)c1`, for which the inhibition was inactive: 0.5%.

Turning to `C=C(C)C#CC(O)(C(=O)OC1CCN(C)CC1)c1ccccc1` (stereo unspecified), the inhibition is inactive: 4.2%.

As for `O=C(OC1CN2CCC1CC2)C(CO)(c1ccccc1)c1ccccc1` (stereo unspecified), the inhibition is inactive: 5.3%.

For the compound `Cc1ccc(C(=O)NCC2(N3CCCCC3)CCCCC2)cc1`, the inhibition was inactive: 15.6%.

As for `CC(C)N1C(=O)CC2(CCN(CCOC(=O)C(O)(c3ccccc3)c3ccccc3)CC2)C1=O`, the inhibition is inactive: -1%.

With `COc1cc(SC)ccc1C(=O)NCC1(N(C)C)CCCCC1`, the inhibition was inactive: -9.5%.

Regarding `CCN(CC)CC(C)C(C)OC(=O)C(O)(c1ccccc1)c1ccccc1` (stereo unspecified), the inhibition is inactive: -1.4%.

Regarding `CN1[C@@H]2CC[C@H]1CC(OC(=O)C(O)(c1ccccc1)c1ccccc1)C2` (stereo partly specified), the inhibition is inactive: 2.7%.

In the case of `O=C(NCC1(N2CCCCC2)CCCCC1)c1cc([N+](=O)[O-])ccc1Cl`, the inhibition is inactive: -1.6%.

Consider `O=C(NCC1(N2CCCCC2)CCCCC1)c1cccc(Br)c1`, for which the inhibition is inactive: -7.9%.

As for `CCN1CCCC(OC(=O)C2(O)c3ccccc3C=Cc3ccccc32)C1` (stereo unspecified), the inhibition was inactive: -3.8%.

Take `Cc1cc(C(=O)NCC2(N3CCCCC3)CCCCC2)ccc1[N+](=O)[O-]`: the inhibition was inactive: -5.1%.

For `COc1ccc(C(=O)NCC2(N(C)C)CCCCC2)cc1`, the inhibition was inactive: 2.1%.

Take `O=C(NCC1(N2CCCCC2)CCCCC1)c1cc(F)c(F)cc1Cl`: the inhibition was inactive: 4%.

As for `C=CCN1CCN(CCOC(=O)C(O)(c2ccccc2)c2ccccc2)CC1`, the inhibition was inactive: -0.6%.

For the compound `CN(C)c1ccc(C(=O)NCC2(N(C)C)CCCCC2)cc1`, the inhibition is inactive: 15.1%.

For the compound `CN(C)C1CCCC1OC(=O)C(O)(c1ccccc1)c1ccccc1` (stereo unspecified), the inhibition was inactive: 0.5%.

As to `Cc1ccccc1C(=O)NCC1(N2CCCCC2)CCCCC1`, the inhibition was inactive: 1.7%.
